Data taken from PubChem BioAssay (NCI).
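Test compounds were applied to cells in 96-well plates for 48 hours at 5 doses. Abbreviation: GI50, concentration required for 50% inhibition of growth. Definition used: TGI = concentration required for complete inhibition of growth.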

What was measured:
Test in all cases: NCI tumour cell line growth inhibition, 48 h
MDA-MB-231 breast = test system: MDA-MB-231 breast
OVCAR-4 ovarian = test system: OVCAR-4 ovarian
T-47D breast = test system: T-47D breast
DU-145 prostate = test system: DU-145 prostate
SF-295 CNS = test system: SF-295 CNS
UACC-62 melanoma = test system: UACC-62 melanoma
RXF 393 renal = test system: RXF 393 renal
NCI-H23 lung = test system: NCI-H23 lung
786-0 renal = test system: 786-0 renal
SF-268 CNS = test system: SF-268 CNS
HS 578T breast = test system: HS 578T breast
A498 renal = test system: A498 renal
NCI-H322M lung = test system: NCI-H322M lung
SK-MEL-2 melanoma = test system: SK-MEL-2 melanoma
SW-620 colon = test system: SW-620 colon
IGROV1 ovarian = test system: IGROV1 ovarian
OVCAR-5 ovarian = test system: OVCAR-5 ovarian
NCI/ADR-RES ovarian = test system: NCI/ADR-RES ovarian
K-562 leukemia = test system: K-562 leukemia
ACHN renal = test system: ACHN renal
EKVX NSCLC = test system: EKVX NSCLC
UO-31 renal = test system: UO-31 renal
NCI-H460 lung = test system: NCI-H460 lung
CAKI-1 renal = test system: CAKI-1 renal
SN12C renal = test system: SN12C renal
HCC-2998 colon = test system: HCC-2998 colon
SR leukemia = test system: SR leukemia
OVCAR-8 ovarian = test system: OVCAR-8 ovarian
HCT-15 colon = test system: HCT-15 colon
KM12 colon = test system: KM12 colon
A549 NSCLC = test system: A549 NSCLC
HL-60(TB) leukemia = test system: HL-60(TB) leukemia
TK-10 renal = test system: TK-10 renal
NCI-H226 lung = test system: NCI-H226 lung
PC-3 prostate = test system: PC-3 prostate
CCRF-CEM leukemia = test system: CCRF-CEM leukemia
HOP-92 NSCLC = test system: HOP-92 NSCLC
U251 CNS = test system: U251 CNS
MDA-MB-435 = test system: MDA-MB-435
SK-MEL-28 melanoma = test system: SK-MEL-28 melanoma
HOP-62 NSCLC = test system: HOP-62 NSCLC
OVCAR-3 ovarian = test system: OVCAR-3 ovarian
UACC-257 melanoma = test system: UACC-257 melanoma
HT29 colon = test system: HT29 colon
LOX IMVI melanoma = test system: LOX IMVI melanoma
SNB-19 CNS = test system: SNB-19 CNS
MDA-N = test system: MDA-N
NCI-H522 lung = test system: NCI-H522 lung
MALME-3M melanoma = test system: MALME-3M melanoma
BT-549 breast = test system: BT-549 breast
HCT-116 colon = test system: HCT-116 colon
MOLT-4 leukemia = test system: MOLT-4 leukemia
SK-MEL-5 melanoma = test system: SK-MEL-5 melanoma
M14 melanoma = test system: M14 melanoma

Which results are given for `NS(=O)(=O)Cc1ccc([As](=O)(O)O)cc1`?
GI50 (MDA-MB-231 breast): > 100 µM; TGI (MDA-MB-231 breast): > 100 µM; GI50 (OVCAR-4 ovarian): > 100 µM; TGI (OVCAR-4 ovarian): > 100 µM; GI50 (T-47D breast): > 100 µM; TGI (T-47D breast): > 100 µM; GI50 (DU-145 prostate): > 100 µM; TGI (DU-145 prostate): > 100 µM; GI50 (SF-295 CNS): > 100 µM; TGI (SF-295 CNS): > 100 µM; GI50 (UACC-62 melanoma): > 100 µM; TGI (UACC-62 melanoma): > 100 µM; GI50 (RXF 393 renal): > 100 µM; TGI (RXF 393 renal): > 100 µM; GI50 (NCI-H23 lung): > 100 µM; TGI (NCI-H23 lung): > 100 µM; GI50 (786-0 renal): > 100 µM; TGI (786-0 renal): > 100 µM; GI50 (SF-268 CNS): > 100 µM; TGI (SF-268 CNS): > 100 µM; GI50 (HS 578T breast): > 100 µM; TGI (HS 578T breast): > 100 µM; GI50 (A498 renal): > 100 µM; TGI (A498 renal): > 100 µM; GI50 (NCI-H322M lung): > 100 µM; TGI (NCI-H322M lung): > 100 µM; GI50 (SK-MEL-2 melanoma): > 100 µM; TGI (SK-MEL-2 melanoma): > 100 µM; GI50 (SW-620 colon): > 100 µM; TGI (SW-620 colon): > 100 µM; GI50 (IGROV1 ovarian): > 100 µM; TGI (IGROV1 ovarian): > 100 µM; GI50 (OVCAR-5 ovarian): > 100 µM; TGI (OVCAR-5 ovarian): > 100 µM; GI50 (NCI/ADR-RES ovarian): > 100 µM; TGI (NCI/ADR-RES ovarian): > 100 µM; GI50 (K-562 leukemia): > 100 µM; TGI (K-562 leukemia): > 100 µM; GI50 (ACHN renal): > 100 µM; TGI (ACHN renal): > 100 µM; GI50 (EKVX NSCLC): > 100 µM; TGI (EKVX NSCLC): > 100 µM; GI50 (UO-31 renal): > 100 µM; TGI (UO-31 renal): > 100 µM; GI50 (NCI-H460 lung): > 100 µM; TGI (NCI-H460 lung): > 100 µM; GI50 (CAKI-1 renal): > 100 µM; TGI (CAKI-1 renal): > 100 µM; GI50 (SN12C renal): > 100 µM; TGI (SN12C renal): > 100 µM; GI50 (HCC-2998 colon): > 100 µM; TGI (HCC-2998 colon): > 100 µM; GI50 (SR leukemia): > 100 µM; TGI (SR leukemia): > 100 µM; GI50 (OVCAR-8 ovarian): > 100 µM; TGI (OVCAR-8 ovarian): > 100 µM; GI50 (HCT-15 colon): > 100 µM; TGI (HCT-15 colon): > 100 µM; GI50 (KM12 colon): > 100 µM; TGI (KM12 colon): > 100 µM; GI50 (A549 NSCLC): > 100 µM; TGI (A549 NSCLC): > 100 µM; GI50 (HL-60(TB) leukemia): > 100 µM; TGI (HL-60(TB) leukemia): > 100 µM; GI50 (TK-10 renal): > 100 µM; TGI (TK-10 renal): > 100 µM; GI50 (NCI-H226 lung): > 100 µM; TGI (NCI-H226 lung): > 100 µM; GI50 (PC-3 prostate): > 100 µM; TGI (PC-3 prostate): > 100 µM; GI50 (CCRF-CEM leukemia): > 100 µM; TGI (CCRF-CEM leukemia): > 100 µM; GI50 (HOP-92 NSCLC): > 100 µM; TGI (HOP-92 NSCLC): > 100 µM; GI50 (U251 CNS): > 100 µM; TGI (U251 CNS): > 100 µM; GI50 (MDA-MB-435): > 100 µM; TGI (MDA-MB-435): > 100 µM; GI50 (SK-MEL-28 melanoma): > 100 µM; TGI (SK-MEL-28 melanoma): > 100 µM; GI50 (HOP-62 NSCLC): > 100 µM; TGI (HOP-62 NSCLC): > 100 µM; GI50 (OVCAR-3 ovarian): > 100 µM; TGI (OVCAR-3 ovarian): > 100 µM; GI50 (UACC-257 melanoma): > 100 µM; TGI (UACC-257 melanoma): > 100 µM; GI50 (HT29 colon): > 100 µM; TGI (HT29 colon): > 100 µM; GI50 (LOX IMVI melanoma): > 100 µM; TGI (LOX IMVI melanoma): > 100 µM; GI50 (SNB-19 CNS): > 100 µM; TGI (SNB-19 CNS): > 100 µM; GI50 (MDA-N): > 100 µM; TGI (MDA-N): > 100 µM; GI50 (NCI-H522 lung): > 100 µM; TGI (NCI-H522 lung): > 100 µM; GI50 (MALME-3M melanoma): > 100 µM; TGI (MALME-3M melanoma): > 100 µM; GI50 (BT-549 breast): > 100 µM; TGI (BT-549 breast): > 100 µM; GI50 (HCT-116 colon): > 100 µM; TGI (HCT-116 colon): > 100 µM; GI50 (MOLT-4 leukemia): > 100 µM; TGI (MOLT-4 leukemia): > 100 µM; GI50 (SK-MEL-5 melanoma): > 100 µM; TGI (SK-MEL-5 melanoma): > 100 µM; GI50 (M14 melanoma): > 100 µM; TGI (M14 melanoma): > 100 µM
